Experiment: Efflux ratio of apparent permeability in human Caco-2 cells incubated for 2 hrs by LC-MS/MS analysis
Type: ADME, cell-based
Settings: caco-2, 2 h

| Compound | Ratio |
| --- | --- |
| Cc1ccccc1Oc1cc(-n2c(=O)cc(C(F)(F)F)[nH]c2=O)c(F)cc1C#N | 6.2 |
| Cc1ccccc1Oc1cc(-n2c(=O)cc(C(F)(F)F)[nH]c2=O)c2ccccc2c1 [BAY-771] | 0.62 |

Source: ChEMBL document CHEMBL5214979 (J Med Chem, 2022)
